{"source": "patent US10618875B2", "about": "(priority 2017, dated 2020)", "key": {"[1]": {"test": "Formation of DNP from Compound B by human liver microsomes", "settings": "2 μM test compound"}, "[2]": {"system": "Hep3B-luc human liver tumor", "test": "Hep3B-luc human liver cancer murine orthotopic model", "assay_type": "in vivo, BALB/c nude mice", "settings": "Sorafenib Tosylate 80 mg/kg + 25, 100, 200 or 300 mg/kg Compound A, 28 days"}, "[3]": {"system": "NCI-60 cell lines", "test": "NCI-60 cancer cell line panel growth, one-dose", "assay_type": "cell-based, human", "settings": "10 μM, 48 h, SRB"}, "[4]": {"system": "rats fed a high fat diet (HFD)", "test": "Rat NAFLD model induced by HFD"}, "[5]": {"system": "Zucker diabetic fatty (ZDF) rats", "test": "Zucker diabetic fatty (ZDF) rats"}, "[6]": {"test": "7-day repeat dose mouse toxicity study", "settings": "orally, levels as high as 500 mg/kg"}, "[7]": {"system": "mice with induced fatty liver disease", "test": "Oral glucose tolerance test in MCD-fed mice", "settings": "5, 25, 100 mg/kg, five weeks of treatment; p<0.05 for 25 and 100 mg/kg, p<0.01 for 5 mg/kg"}, "[8]": {"system": "MCD diet-induced NASH mouse liver", "test": "MCD diet induced NASH mouse model (liver lipid droplets, cytokines)"}, "[9]": {"system": "mice with induced fatty liver disease", "test": "Serum ALT, AST and ALP liver enzymes after Compound A in MCD-fed mice", "settings": "MCD mice, 5, 25, 100 mpk oral gavage, 4 weeks; significant at 5 and 100 mpk"}, "[10]": {"system": "Diet Induced Animal Model of Non-alcoholic fatty liver Disease (DIAMOND) mice", "test": "Diet induced animal model of non-alcoholic fatty liver disease (DIAMOND)"}, "[11]": {"test": "Formation of DNP from Compound A by liver microsomes of different species", "settings": "2 μM Compound A, 0.5 mg/mL microsomes, with or without 1 mM NADPH"}, "[12]": {"settings": "HFD rats, 0.1, 0.5, 5 mg/kg PO QD x 14 d, compared to vehicle control"}, "[13]": {"settings": "HFD rats, all treatment doses, PO QD x 14 d"}, "[14]": {"settings": "PO QD, between the study groups"}, "[15]": {"settings": "5 mpk, MCD diet-induced NASH mice"}, "[16]": {"settings": "5 mg/kg daily for 8 weeks, serum"}, "[17]": {"settings": "DIAMOND mice, high dose (FIG. 33)"}}}
{"compound": "Cn1c([N+](=O)[O-])cnc1COc1ccc([N+](=O)[O-])cc1[N+](=O)[O-]", "values": [{"measurement": "Formation Percentage", "setting": "[1]; With NADPH, 0 min", "value": 1.56, "unit": "%"}, {"measurement": "Formation of DNP", "setting": "[1]; With NADPH, 0 min", "value": 0.031, "unit": "µM"}, {"measurement": "Formation Percentage", "setting": "[1]; With NADPH, 15 min", "value": 1.90, "unit": "%"}, {"measurement": "Formation of DNP", "setting": "[1]; With NADPH, 15 min", "value": 0.038, "unit": "µM"}, {"measurement": "Formation Percentage", "setting": "[1]; With NADPH, 30 min", "value": 1.26, "unit": "%"}, {"measurement": "Formation of DNP", "setting": "[1]; With NADPH, 30 min", "value": 0.025, "unit": "µM"}, {"measurement": "Formation Percentage", "setting": "[1]; With NADPH, 45 min", "value": 1.13, "unit": "%"}, {"measurement": "Formation of DNP", "setting": "[1]; With NADPH, 45 min", "value": 0.023, "unit": "µM"}, {"measurement": "Formation Percentage", "setting": "[1]; With NADPH, 60 min", "value": 0.91, "unit": "%"}, {"measurement": "Formation of DNP", "setting": "[1]; With NADPH, 60 min", "value": 0.018, "unit": "µM"}, {"measurement": "Formation Percentage", "setting": "[1]; Without NADPH, 0 min", "value": 0.83, "unit": "%"}, {"measurement": "Formation of DNP", "setting": "[1]; Without NADPH, 0 min", "value": 0.017, "unit": "µM"}, {"measurement": "Formation Percentage", "setting": "[1]; Without NADPH, 15 min", "value": 0.75, "unit": "%"}, {"measurement": "Formation of DNP", "setting": "[1]; Without NADPH, 15 min", "value": 0.015, "unit": "µM"}, {"measurement": "Formation Percentage", "setting": "[1]; Without NADPH, 30 min", "value": 0.72, "unit": "%"}, {"measurement": "Formation of DNP", "setting": "[1]; Without NADPH, 30 min", "value": 0.014, "unit": "µM"}, {"measurement": "Formation Percentage", "setting": "[1]; Without NADPH, 45 min", "value": 0.69, "unit": "%"}, {"measurement": "Formation of DNP", "setting": "[1]; Without NADPH, 45 min", "value": 0.014, "unit": "µM"}, {"measurement": "Formation Percentage", "setting": "[1]; Without NADPH, 60 min", "value": 0.63, "unit": "%"}, {"measurement": "Formation of DNP", "setting": "[1]; Without NADPH, 60 min", "value": 0.013, "unit": "µM"}]}
{"compound": "Cn1c(COc2ccc([N+](=O)[O-])cc2[N+](=O)[O-])cnc1[N+](=O)[O-]", "values": [{"measurement": "effect of Sorafenib on BLI in combination with Compound A", "setting": "[2]", "value": "not augmented"}, {"measurement": "delta of growth percent across all cell lines tested", "setting": "[3]", "value": 26.47, "unit": "%"}, {"measurement": "mean growth percent of control across the NCI-60", "setting": "[3]", "value": 98.63, "unit": "%"}, {"measurement": "range of growth percent across all cell lines", "setting": "[3]", "value": 40.14, "unit": "%"}, {"measurement": "animals found dead", "setting": "1500 mg/kg oral gavage, n=4, after 12 hours", "value": "one of the animals"}, {"measurement": "toxicity", "setting": "Compound A to mice compared to administering DNP directly", "value": "sharply reduced"}, {"measurement": "Tmax", "setting": "oral Compound A versus DNP, mice", "value": "delayed"}, {"measurement": "Compound A detected in plasma", "setting": "oral gavage 1-1500 mg/kg, mouse plasma", "value": "detected in plasma only in small amounts in the highest dosed animals"}, {"measurement": "conversion of Compound A in vivo (PK analysis)", "setting": "oral gavage, mouse plasma", "value": "hydrolyzed to DNP residue"}, {"measurement": "serum FFA level", "setting": "[4]; [12]", "value": "trended lower in a dose dependent manner"}, {"measurement": "serum TG level", "setting": "[4]; [12]", "value": "trended lower in a dose dependent manner"}, {"measurement": "serum FFA level", "setting": "[4]; HFD rats, after seven days of dosing, compared to vehicle", "value": "significant differences"}, {"measurement": "liver FFA level", "setting": "[4]; [13]", "value": "trended lower"}, {"measurement": "liver HDL-C level", "setting": "[4]; [13]", "value": "trended lower"}, {"measurement": "liver LDL-C level", "setting": "[4]; [13]", "value": "trended lower"}, {"measurement": "liver TCHO level", "setting": "[4]; [13]", "value": "trended lower"}, {"measurement": "liver TG level", "setting": "[4]; [13]", "value": "trended lower"}, {"measurement": "liver ceramide level", "setting": "[4]; [13]", "value": "trended lower"}, {"measurement": "reduction of liver ceramide", "setting": "[4]; HFD rats, highest dosed group (5 mg/kg)", "value": "reached significance"}, {"measurement": "liver FFA level", "setting": "[4]; HFD rats, two highest doses of Compound A (0.5 and 5 mg/kg)", "value": "significant reduction"}, {"measurement": "NEFA (Free Fatty Acid, FFA) level", "setting": "[5]; 0.1 mg/kg", "value": "trended lower"}, {"measurement": "liver TG reduction", "setting": "[5]; 5.0 mg/kg, p<0.05 compared with vehicle group", "value": "did reach statistical significance"}, {"measurement": "body weight", "setting": "[5]; [14]", "value": "no significant changes"}, {"measurement": "food consumption", "setting": "[5]; [14]", "value": "no significant changes"}, {"measurement": "body weight", "setting": "[5]; all dosing groups after day 36 compared to vehicle", "value": "trend towards lower body weights"}, {"measurement": "blood TG (triglycerides) level", "setting": "[5]; all study groups", "value": "lower than vehicle control"}, {"measurement": "liver TG", "setting": "[5]; all study groups", "value": "also lower"}, {"measurement": "blood insulin level", "setting": "[5]; all treatment groups, Day 57, ELISA", "value": "observed to be lower"}, {"measurement": "food consumption", "setting": "[5]; highest Compound A dosing group (5.0 mg/kg)", "value": "trend towards higher food consumption"}, {"measurement": "NEFA (Free Fatty Acid, FFA) level", "setting": "[5]; two groups with the highest levels of Compound A (0.5 and 5.0 mg/kg), vs vehicle", "value": "significantly lower"}, {"measurement": "kidney dysfunction as measured by creatinine in the blood", "setting": "[6]", "value": "did not cause kidney dysfunction"}, {"measurement": "blood glucose level 120 minutes after glucose challenge (OGTT)", "setting": "[7]", "value": "statistically significant"}, {"measurement": "lipid droplets in liver", "setting": "[8]; 5 mpk, 6 weeks of treatment", "value": "sharply reduced"}, {"measurement": "liver IL-1β", "setting": "[8]; [15]", "value": "decreased"}, {"measurement": "liver TNFα", "setting": "[8]; [15]", "value": "decreased"}, {"measurement": "steatohepatitis in liver", "setting": "[8]; MCD diet-induced NASH mouse liver", "value": "reduces"}, {"measurement": "ALT level", "setting": "[9]", "value": "reduced in a dose-dependent manner"}, {"measurement": "AST level", "setting": "[9]", "value": "reduced in a dose-dependent manner"}, {"measurement": "liver weight", "setting": "[10]; 5 mg/kg daily for 8 weeks", "value": "statistically significant lower"}, {"measurement": "total cholesterol", "setting": "[10]; 5 mg/kg daily for 8 weeks", "value": "statistically significant lower"}, {"measurement": "ALP", "setting": "[10]; [16]", "value": "statistically significant lower"}, {"measurement": "ALT", "setting": "[10]; [16]", "value": "statistically significant lower"}, {"measurement": "ASP", "setting": "[10]; [16]", "value": "statistically significant lower"}, {"measurement": "body weight", "setting": "[10]; 5 mg/kg daily for 8 weeks, week 20", "value": "significant body weight reduction"}, {"measurement": "lobular inflammation", "setting": "[10]; DIAMOND mice, 8 weeks of treatment", "value": "significantly reduced"}, {"measurement": "NAS", "setting": "[10]; [17]", "value": "significantly lowered"}, {"measurement": "SAF activity score", "setting": "[10]; [17]", "value": "significantly lowered"}, {"measurement": "progression to NASH", "setting": "[10]; DIAMOND mice, all controls progressed to NASH", "value": "only one mouse on compound A progressed to NASH"}, {"measurement": "formation of DNP in liver microsomes", "setting": "[11]", "value": "requires NADPH"}]}
